From ChEMBL document CHEMBL1143495, “Topological model for the prediction of MRP1 inhibitory activity of pyrrolopyrimidines and templates derived from pyrrolopyrimidine” (Bioorg Med Chem Lett, 2005) come the findings set out here.

Protein sequences, listed by entry. Tags and fused reporters are not part of them. Lines headed by an entry give the natural chain unless they say otherwise; changes in a name come on top.
UniProt P33527: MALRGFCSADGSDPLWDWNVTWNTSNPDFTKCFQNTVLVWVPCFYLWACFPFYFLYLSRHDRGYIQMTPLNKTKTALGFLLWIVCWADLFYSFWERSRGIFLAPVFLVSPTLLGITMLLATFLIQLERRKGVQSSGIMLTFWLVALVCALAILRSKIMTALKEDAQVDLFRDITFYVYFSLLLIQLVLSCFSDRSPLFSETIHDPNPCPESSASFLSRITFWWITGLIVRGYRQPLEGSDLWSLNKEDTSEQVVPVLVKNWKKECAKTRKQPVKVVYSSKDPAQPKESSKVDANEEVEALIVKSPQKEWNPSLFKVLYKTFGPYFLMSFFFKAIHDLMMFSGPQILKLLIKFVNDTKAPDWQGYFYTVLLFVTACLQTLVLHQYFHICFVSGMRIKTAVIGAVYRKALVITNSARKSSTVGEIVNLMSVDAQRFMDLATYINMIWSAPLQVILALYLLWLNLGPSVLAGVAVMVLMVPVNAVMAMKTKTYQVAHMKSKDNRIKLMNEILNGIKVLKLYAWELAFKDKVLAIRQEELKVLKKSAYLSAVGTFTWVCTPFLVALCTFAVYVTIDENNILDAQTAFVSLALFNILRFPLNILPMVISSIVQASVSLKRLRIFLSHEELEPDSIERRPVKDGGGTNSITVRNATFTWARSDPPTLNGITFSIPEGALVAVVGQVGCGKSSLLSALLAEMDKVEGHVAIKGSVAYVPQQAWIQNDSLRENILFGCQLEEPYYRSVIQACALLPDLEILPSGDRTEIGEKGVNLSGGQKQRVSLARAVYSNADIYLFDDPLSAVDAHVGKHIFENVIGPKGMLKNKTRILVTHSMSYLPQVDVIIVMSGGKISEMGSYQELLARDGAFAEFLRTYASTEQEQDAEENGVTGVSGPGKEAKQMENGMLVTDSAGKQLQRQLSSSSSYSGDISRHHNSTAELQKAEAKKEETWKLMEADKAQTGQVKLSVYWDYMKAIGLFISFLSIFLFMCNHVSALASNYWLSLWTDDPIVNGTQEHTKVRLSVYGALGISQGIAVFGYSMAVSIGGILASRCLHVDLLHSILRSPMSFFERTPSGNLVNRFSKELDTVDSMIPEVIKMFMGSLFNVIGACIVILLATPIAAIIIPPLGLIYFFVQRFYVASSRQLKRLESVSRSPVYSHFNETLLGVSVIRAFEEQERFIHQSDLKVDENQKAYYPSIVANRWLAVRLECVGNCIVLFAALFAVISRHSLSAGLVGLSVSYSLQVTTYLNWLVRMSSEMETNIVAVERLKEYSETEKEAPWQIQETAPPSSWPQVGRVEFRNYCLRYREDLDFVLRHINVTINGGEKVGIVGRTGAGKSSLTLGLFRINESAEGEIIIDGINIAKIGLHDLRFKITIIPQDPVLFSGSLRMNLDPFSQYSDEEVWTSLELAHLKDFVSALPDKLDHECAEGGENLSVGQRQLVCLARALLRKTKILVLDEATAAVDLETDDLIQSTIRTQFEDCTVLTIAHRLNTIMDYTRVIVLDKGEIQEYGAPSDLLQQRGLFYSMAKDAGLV

In general, IC50 refers to the concentration at which inhibition is half-maximal. A lower IC50 goes with higher potency.

The assay concerns the target Multidrug resistance-associated protein 1 (Homo sapiens, UniProt P33527). Put plainly: Inhibitory concentration against multidrug resistance associated protein 1.

`CCNC(=O)c1c2n(c3c(N4CCN(CCc5ccc(F)c(F)c5)CC4)ncnc13)CCCC2` returned an IC50 of less than 250 nM.
As for `O=C(Nc1cccnc1)c1c2n(c3c(N4CCN(CCc5ccc(F)c(F)c5)CC4)ncnc13)CCCC2`, the IC50 is less than 250 nM.
